# Measured values reported in US20140106421A1, “Methods Of Producing Carboxylic Acids And/Or Alcohols” (Industrial Technology Research Institute, priority 2012, published 2014).
# Experiments:
# [1] = test system: PVA-immobilized clostridium tyrobutyricum; assay: Extractive fermentation-column reactor, 1 M TOPO or TBP in oleyl alcohol (Example 4C); format: cell-based; settings: 1 M extractant in oleyl alcohol as organic phase; 37° C., 100 hours
# [2] = Extraction of butyric acid from CGM medium with TBP in oleyl alcohol (Example 1.3); settings: 24 hours, 37° C.
structure (smiles),measurement,setting,value
CCCCOP(=O)(OCCCC)OCCCC,Cells growth (Δ OD600),[1],0
same,butyric acid distribution ratio,"[2]; TBP 0.1 M in oleyl alcohol, butyric acid 1%, pH 4",1.77
same,butyric acid distribution ratio,"[2]; TBP 0.1 M in oleyl alcohol, butyric acid 1%, pH 5",0.51
same,butyric acid distribution ratio,"[2]; TBP 0.1 M in oleyl alcohol, butyric acid 1%, pH 6",0.05
same,butyric acid distribution ratio,"[2]; TBP 0.1 M in oleyl alcohol, butyric acid 2%, pH 4",2.34
same,butyric acid distribution ratio,"[2]; TBP 0.1 M in oleyl alcohol, butyric acid 2%, pH 5",0.51
same,butyric acid distribution ratio,"[2]; TBP 0.1 M in oleyl alcohol, butyric acid 2%, pH 6",0.05
same,butyric acid distribution ratio,"[2]; TBP 0.1 M in oleyl alcohol, butyric acid 3%, pH 4",2.31
same,butyric acid distribution ratio,"[2]; TBP 0.1 M in oleyl alcohol, butyric acid 3%, pH 5",0.44
same,butyric acid distribution ratio,"[2]; TBP 0.1 M in oleyl alcohol, butyric acid 3%, pH 6",0.04
same,butyric acid distribution ratio,"[2]; TBP 0.5 M in oleyl alcohol, butyric acid 1%, pH 4",2.04
same,butyric acid distribution ratio,"[2]; TBP 0.5 M in oleyl alcohol, butyric acid 1%, pH 5",0.55
same,butyric acid distribution ratio,"[2]; TBP 0.5 M in oleyl alcohol, butyric acid 1%, pH 6",0.10
same,butyric acid distribution ratio,"[2]; TBP 0.5 M in oleyl alcohol, butyric acid 2%, pH 4",2.75
same,butyric acid distribution ratio,"[2]; TBP 0.5 M in oleyl alcohol, butyric acid 2%, pH 5",0.56
same,butyric acid distribution ratio,"[2]; TBP 0.5 M in oleyl alcohol, butyric acid 2%, pH 6",0.05
same,butyric acid distribution ratio,"[2]; TBP 0.5 M in oleyl alcohol, butyric acid 3%, pH 4",2.64
same,butyric acid distribution ratio,"[2]; TBP 0.5 M in oleyl alcohol, butyric acid 3%, pH 5",0.46
same,butyric acid distribution ratio,"[2]; TBP 0.5 M in oleyl alcohol, butyric acid 3%, pH 6",0.05
same,butyric acid distribution ratio,"[2]; TBP 1 M in oleyl alcohol, butyric acid 1%, pH 4",2.57
same,butyric acid distribution ratio,"[2]; TBP 1 M in oleyl alcohol, butyric acid 1%, pH 5",0.62
same,butyric acid distribution ratio,"[2]; TBP 1 M in oleyl alcohol, butyric acid 1%, pH 6",0.08
same,butyric acid distribution ratio,"[2]; TBP 1 M in oleyl alcohol, butyric acid 2%, pH 4",3.47
same,butyric acid distribution ratio,"[2]; TBP 1 M in oleyl alcohol, butyric acid 2%, pH 5",0.61
same,butyric acid distribution ratio,"[2]; TBP 1 M in oleyl alcohol, butyric acid 2%, pH 6",0.07
same,butyric acid distribution ratio,"[2]; TBP 1 M in oleyl alcohol, butyric acid 3%, pH 4",3.20
same,butyric acid distribution ratio,"[2]; TBP 1 M in oleyl alcohol, butyric acid 3%, pH 5",0.50
same,butyric acid distribution ratio,"[2]; TBP 1 M in oleyl alcohol, butyric acid 3%, pH 6",0.05
